Measured values reported in patent publication US20240108745A1, “BIOACTIVE SUBSTANCE CONJUGATE, PREPARATION METHOD THEREFOR AND USE THEREOF” (MEDILINK THERAPEUTICS (SUZHOU) CO., LTD., priority 2021, published 2024).

Legend:
[1] = target: B7H3 on tumor cells (MCF-7, A549, PC-3) (human) (UniProt Q5ZPR3); test: flow cytometry on A549 tumor cells; reference B7H3-C1
[2] = target: B7H3 on tumor cells (MCF-7, A549, PC-3) (human) (UniProt Q5ZPR3); test: flow cytometry on MCF-7 tumor cells; reference B7H3-C1
[3] = target: B7H3 on tumor cells (MCF-7, A549, PC-3) (human) (UniProt Q5ZPR3); test: flow cytometry on A549 tumor cells
[4] = target: B7H3 on tumor cells (MCF-7, A549, PC-3) (human) (UniProt Q5ZPR3); test: flow cytometry on MCF-7 tumor cells
[5] = target: B7H3 on tumor cells (MCF-7, A549, PC-3) (human) (UniProt Q5ZPR3); test: flow cytometry on PC-3 tumor cells; reference B7H3-C1
[6] = target: B7H3 on tumor cells (MCF-7, A549, PC-3) (human) (UniProt Q5ZPR3); test: flow cytometry on PC-3 tumor cells; reference B7H3-C2
[7] = target: B7H3 on tumor cells (MCF-7, A549, PC-3) (human) (UniProt Q5ZPR3); test: flow cytometry on MCF-7 tumor cells; reference control antibody 2 (B7H3-C2)
[8] = target: B7H3 on tumor cells (MCF-7, A549, PC-3) (human) (UniProt Q5ZPR3); test: flow cytometry on PC-3 tumor cells

B1: anti-B7H3 antibody 1D1-01 (antibody, human IgG1, kappa, V domains shown)
VH: EGQLVESGGGLVQPGGSLRLSCAASGFTISSYWMNWVRQAPGKGLEWVANIKQDGSEKYYVDSVQGRFTISRDNAKNSLYLQMNSLRAEDTAVYYCARRMYSSGWYWGAFDMWGQGTMVTVSS
VL: EIVLTQSPGTLSLSPGERATLSCRASQSVSSIYLAWNQQKPGQAPRLLIYGTFKRATGIPDRFSGSGSGTDFTLTISSLEPEDFAVYYCQQYDTSSITFGQGTRLEIKR
maximum fluorescence signal value, higher than that of B7H3-C1 [1]: 36% | maximum fluorescence signal value, higher than that of B7H3-C1 [2]: 12% | EC50 [3]: 0.322 nM | Maximum MFI [3]: 11300 | EC50 [4]: 0.524 nM | Maximum MFI [4]: 94500

B2: anti-B7H3 antibody 2E3-02 (antibody, human IgG1, kappa, V domains shown)
VH: EVQLLESGGGLVQPGGSLRLSCAASGFTFSSYAMNWVRQAPGKGLEWVSGISGSGGSTYYADSVQGRFTISRDNSKNTLYLQMNSLRAEDTAVYYCAKARSGYDYFFDYWGQGTLVTVSS
VL: EIVLTQSPGTLSLSPGERATLSCRASQRISSSFLAWYQQKPGQAPSLLIYGASSRATGIPDRFSGSGSGTDFTLTISSLEPEDFAVFYCQQYSNSPLTFGGGTKVEIKR
maximum fluorescence signal value, higher than that of B7H3-C1 [1]: 77% | maximum fluorescence signal value, times that of B7H3-C1 [5]: 1.51 times | maximum fluorescence signal value, higher than that of B7H3-C1 [2]: 23% | EC50 [3]: 0.15 nM | Maximum MFI [3]: 84800 | maximum fluorescence signal value, times that of B7H3-C2 [6]: 4.48 times | EC50 [4]: 0.398 nM | Maximum MFI [4]: 77700 | maximum fluorescence signal value, times that of control antibody 2 [7]: 2.78 times | EC50 [8]: 0.063 nM | Maximum MFI [8]: 9730
